This series relates to Kunming mice. The conditions noted are these: administering dosage 16678, intravenous, 10 mice. The method, then:
The mice were provided by Medical school of Tongji University and with a batch No. 19-052.
Commonly, the lethality of the mice was regarded as positive index. After the death mice of each group were recorded and calculated and a LD50 value was calculated according to the Bliss statistical method.

For the molecule `C[C@H]1[C@H](C)CC[C@]2(C(=O)O)CC[C@]3(C)C(=CC[C@@H]4[C@@]5(C)CC[C@H](O)C(C)(C)[C@@H]5CC[C@]43C)[C@H]12` [Ursolic Acid for Injection, ursolic acid], the “Probability unit (y)” value came out at 8.09.

The values are drawn from patent US8287889B2 (Wuhan Liyuanheng Pharmaceutical Technology Ltd., priority 2002, dated 2012).
